Amino acid sequences for entries named in this document (tags omitted). A change or cut given only in a name is not applied to a line headed by its entry.
UniProt Q5JUK3, whole entry Y796H: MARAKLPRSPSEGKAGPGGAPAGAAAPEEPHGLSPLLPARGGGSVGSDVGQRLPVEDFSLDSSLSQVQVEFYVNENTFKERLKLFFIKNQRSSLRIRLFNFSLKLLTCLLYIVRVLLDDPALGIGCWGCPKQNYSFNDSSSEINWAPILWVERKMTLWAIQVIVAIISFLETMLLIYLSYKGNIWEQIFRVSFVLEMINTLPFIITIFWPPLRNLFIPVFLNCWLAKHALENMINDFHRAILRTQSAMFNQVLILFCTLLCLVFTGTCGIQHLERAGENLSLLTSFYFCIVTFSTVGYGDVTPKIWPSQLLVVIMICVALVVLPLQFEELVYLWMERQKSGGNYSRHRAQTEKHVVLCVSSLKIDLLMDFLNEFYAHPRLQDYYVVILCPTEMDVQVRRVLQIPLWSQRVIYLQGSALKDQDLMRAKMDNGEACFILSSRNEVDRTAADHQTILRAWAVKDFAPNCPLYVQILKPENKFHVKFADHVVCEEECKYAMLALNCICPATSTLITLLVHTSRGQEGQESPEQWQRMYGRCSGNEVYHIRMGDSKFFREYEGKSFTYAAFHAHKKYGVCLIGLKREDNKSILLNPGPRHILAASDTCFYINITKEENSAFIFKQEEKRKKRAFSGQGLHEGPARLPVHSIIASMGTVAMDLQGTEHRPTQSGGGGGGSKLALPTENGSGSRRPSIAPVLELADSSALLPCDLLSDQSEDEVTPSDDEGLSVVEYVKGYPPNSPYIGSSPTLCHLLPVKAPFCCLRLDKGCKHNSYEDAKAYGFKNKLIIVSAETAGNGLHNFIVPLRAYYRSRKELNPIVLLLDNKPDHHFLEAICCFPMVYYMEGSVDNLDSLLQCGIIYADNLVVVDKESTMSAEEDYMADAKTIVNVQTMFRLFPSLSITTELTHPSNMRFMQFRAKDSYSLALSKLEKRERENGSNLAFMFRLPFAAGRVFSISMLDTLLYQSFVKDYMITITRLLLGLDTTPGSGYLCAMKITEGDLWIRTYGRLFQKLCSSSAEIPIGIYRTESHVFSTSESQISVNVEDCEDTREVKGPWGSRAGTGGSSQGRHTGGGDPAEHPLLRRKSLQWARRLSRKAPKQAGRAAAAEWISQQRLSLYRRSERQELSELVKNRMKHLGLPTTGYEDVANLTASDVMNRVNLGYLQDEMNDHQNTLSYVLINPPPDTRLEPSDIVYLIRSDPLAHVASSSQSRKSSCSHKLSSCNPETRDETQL
UniProt Q5JUK3, whole entry, stated change not applied: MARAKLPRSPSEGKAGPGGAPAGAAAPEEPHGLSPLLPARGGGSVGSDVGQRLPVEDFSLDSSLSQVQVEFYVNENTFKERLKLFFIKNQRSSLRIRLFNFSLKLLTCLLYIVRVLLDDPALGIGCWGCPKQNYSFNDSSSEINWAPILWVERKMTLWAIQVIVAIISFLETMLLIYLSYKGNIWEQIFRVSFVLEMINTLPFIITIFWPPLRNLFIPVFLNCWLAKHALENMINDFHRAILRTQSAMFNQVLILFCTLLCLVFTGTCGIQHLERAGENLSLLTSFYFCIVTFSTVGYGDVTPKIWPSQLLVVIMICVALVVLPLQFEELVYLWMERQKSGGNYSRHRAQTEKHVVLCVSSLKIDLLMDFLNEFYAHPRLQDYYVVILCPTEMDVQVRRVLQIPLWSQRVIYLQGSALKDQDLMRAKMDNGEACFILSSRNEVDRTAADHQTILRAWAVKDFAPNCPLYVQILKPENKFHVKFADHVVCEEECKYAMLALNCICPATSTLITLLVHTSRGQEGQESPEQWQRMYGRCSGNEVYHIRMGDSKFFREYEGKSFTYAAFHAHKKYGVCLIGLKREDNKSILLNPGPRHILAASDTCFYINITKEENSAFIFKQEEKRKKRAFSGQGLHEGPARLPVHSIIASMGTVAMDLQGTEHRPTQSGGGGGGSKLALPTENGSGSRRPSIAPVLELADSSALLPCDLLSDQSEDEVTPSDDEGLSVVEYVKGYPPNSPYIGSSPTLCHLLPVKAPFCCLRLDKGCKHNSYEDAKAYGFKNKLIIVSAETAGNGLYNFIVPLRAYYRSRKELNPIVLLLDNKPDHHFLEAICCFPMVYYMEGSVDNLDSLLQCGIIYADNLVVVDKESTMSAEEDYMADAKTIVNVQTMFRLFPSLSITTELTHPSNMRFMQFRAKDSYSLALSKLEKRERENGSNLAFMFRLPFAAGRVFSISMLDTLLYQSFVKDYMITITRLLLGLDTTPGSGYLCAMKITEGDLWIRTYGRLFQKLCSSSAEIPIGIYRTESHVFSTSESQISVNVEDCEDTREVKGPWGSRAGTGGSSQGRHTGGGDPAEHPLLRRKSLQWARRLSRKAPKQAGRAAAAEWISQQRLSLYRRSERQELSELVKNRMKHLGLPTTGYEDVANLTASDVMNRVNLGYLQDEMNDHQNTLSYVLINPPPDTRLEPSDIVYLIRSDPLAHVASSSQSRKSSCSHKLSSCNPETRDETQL
UniProt Q12809, whole entry: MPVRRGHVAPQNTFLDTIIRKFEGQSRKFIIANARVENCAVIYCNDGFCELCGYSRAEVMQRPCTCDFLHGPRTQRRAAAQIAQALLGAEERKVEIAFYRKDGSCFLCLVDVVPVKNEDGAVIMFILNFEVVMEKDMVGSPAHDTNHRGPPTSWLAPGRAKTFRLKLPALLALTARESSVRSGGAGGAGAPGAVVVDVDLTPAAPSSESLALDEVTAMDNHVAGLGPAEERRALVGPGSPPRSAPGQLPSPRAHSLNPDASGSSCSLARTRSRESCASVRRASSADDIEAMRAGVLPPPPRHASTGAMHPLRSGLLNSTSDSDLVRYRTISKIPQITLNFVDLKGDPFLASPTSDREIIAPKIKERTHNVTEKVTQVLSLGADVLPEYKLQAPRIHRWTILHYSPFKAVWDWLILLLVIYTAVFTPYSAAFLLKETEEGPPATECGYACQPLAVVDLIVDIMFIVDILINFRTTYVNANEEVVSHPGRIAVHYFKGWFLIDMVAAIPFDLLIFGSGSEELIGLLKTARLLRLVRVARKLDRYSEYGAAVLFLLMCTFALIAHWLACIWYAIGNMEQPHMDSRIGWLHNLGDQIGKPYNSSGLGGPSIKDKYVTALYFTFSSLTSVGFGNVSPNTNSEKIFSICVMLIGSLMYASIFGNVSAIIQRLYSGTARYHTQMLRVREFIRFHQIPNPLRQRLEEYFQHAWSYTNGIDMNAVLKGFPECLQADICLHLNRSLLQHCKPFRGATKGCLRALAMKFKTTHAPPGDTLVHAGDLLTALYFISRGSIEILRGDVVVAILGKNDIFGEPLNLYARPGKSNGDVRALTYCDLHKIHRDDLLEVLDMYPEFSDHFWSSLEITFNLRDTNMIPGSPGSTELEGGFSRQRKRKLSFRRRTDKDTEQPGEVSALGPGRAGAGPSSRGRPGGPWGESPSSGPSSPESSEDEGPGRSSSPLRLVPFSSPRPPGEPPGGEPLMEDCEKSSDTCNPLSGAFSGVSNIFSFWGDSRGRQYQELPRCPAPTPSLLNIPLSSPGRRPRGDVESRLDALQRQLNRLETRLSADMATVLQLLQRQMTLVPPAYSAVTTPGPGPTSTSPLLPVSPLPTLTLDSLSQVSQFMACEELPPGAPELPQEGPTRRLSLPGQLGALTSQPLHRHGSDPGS

In doi:10.1101/2025.09.30.679465v1:

What was measured:
[1] = target: KNa1.1 WT/Y796H (Homo sapiens, UniProt Q5JUK3, Y796H); experiment: thallium flux; format: cell-based; settings: 1 h preincubation, 37 °C, 2.5 mM thallium sulphate, pH 7.3
[2] = target: hERG (Homo sapiens, UniProt Q12809); experiment: whole-cell patch clamp, HEK293, tail current; format: cell-based; settings: room temperature, pH 7.3 outside

| Compound | IC50 [1] | % inhibition at 10 μM [2] |
| --- | --- | --- |
| CC1CCN(C2=NC(=O)/C(=C/c3cn(-c4ccccc4)nc3-c3ccc(OCc4ccccc4F)cc3)S2)CC1 | 2.4 µM | > 50% |
| COC(=O)c1cccc(C#Cc2cccc(NC(=O)Cc3ccc(OC(F)F)cc3)c2)c1 | 5.9 µM |  |
| CC(C)(C)c1ccc(O)c(NC(=O)CCc2ccc3c(c2)OCO3)c1 | 3.1 µM | > 50% |

The remaining molecules from weak to strong by IC50 [1], led by results:

| IC50 [1] | Compound | % inhibition at 10 μM [2] |
| --- | --- | --- |
| 11.9 µM | O=C(Nc1ccc(C(F)(F)F)cc1)N1CCC2(CC1)N[C@@H](Cc1ccccc1)C(=O)N2CC1CC1 | > 50% |
| 2.6 µM | CCCCCCOc1ccc(C(=O)Oc2ccc3c(=O)c(Oc4cc(C)cc(C)c4C)c(C(F)(F)F)oc3c2CN2CCOCC2)cc1 |  |
